Reference: ChEMBL document CHEMBL4177600, “Identification of novel PI3K inhibitors through a scaffold hopping strategy” (Bioorg Med Chem Lett, 2017)

Columns and labels:
[1] = target: Serine/threonine-protein kinase mTOR (Homo sapiens, UniProt P42345); test: Inhibition of recombinant human GST-tagged mTOR catalytic domain (1360 to 2549 residues) expressed in baculovirus expression system by AlexaFluor647-labeled kinase tracer 314 based LanthaScreen assay
[2] = target: PI3K p110 beta/p85 alpha (Homo sapiens, UniProt P42338); test: Inhibition of p110beta/85alpha (unknown origin) using PIP2 as substrate by HTRF assay; type: protein-complex assay; conditions: read-out: Ki(app)
[3] = target: Phosphatidylinositol 4,5-bisphosphate 3-kinase catalytic subunit gamma isoform (Homo sapiens, UniProt P48736); test: Inhibition of recombinant full-length human N-terminal His6-tagged p110gamma expressed in baculovirus infected Sf21 insect cells using PIP2 as substrate by HTRF assay; conditions: read-out: Ki(app)

| IC50 [1] [nM] | Ki [2] [nM] | Ki [3] [nM] | SMILES |
| --- | --- | --- | --- |
| 1840 |  |  | CS(=O)(=O)N1CCN(Cc2cn3nc(-c4cnc(N)nc4)nc(N4CCOCC4)c3n2)CC1 |
| 1260 | 155 | 20.7 | CS(=O)(=O)N1CCN(Cc2nc3c(N4CCOCC4)nc(-c4cnc(N)nc4)cn3n2)CC1 |
